Publication PMC8145572 (Viruses, 2021)

Assays:
[1] = test system: Dengue virus serotype 2 (DENV2), strain New Guinea C; assay: Antiviral evaluation; assay type: cell-based; conditions: HFF-1 cells, 100 IU/mL
[2] = clinical IFN regimens; cited from earlier work

interferon-alpha [IFN]
decrease in viral burden relative to the no treatment control [1]: 1.6 log10 PFU/mL | average drug concentration at steady state [2]: approximately 200 IU/mL
